ChEMBL document CHEMBL2016497, “Analogs of the RSK inhibitor SL0101: optimization of in vitro biological stability” (Bioorg Med Chem Lett, 2012)

By UniProt entry, the sequences of proteins in these tests, tags left out.
UniProt P51812, whole entry: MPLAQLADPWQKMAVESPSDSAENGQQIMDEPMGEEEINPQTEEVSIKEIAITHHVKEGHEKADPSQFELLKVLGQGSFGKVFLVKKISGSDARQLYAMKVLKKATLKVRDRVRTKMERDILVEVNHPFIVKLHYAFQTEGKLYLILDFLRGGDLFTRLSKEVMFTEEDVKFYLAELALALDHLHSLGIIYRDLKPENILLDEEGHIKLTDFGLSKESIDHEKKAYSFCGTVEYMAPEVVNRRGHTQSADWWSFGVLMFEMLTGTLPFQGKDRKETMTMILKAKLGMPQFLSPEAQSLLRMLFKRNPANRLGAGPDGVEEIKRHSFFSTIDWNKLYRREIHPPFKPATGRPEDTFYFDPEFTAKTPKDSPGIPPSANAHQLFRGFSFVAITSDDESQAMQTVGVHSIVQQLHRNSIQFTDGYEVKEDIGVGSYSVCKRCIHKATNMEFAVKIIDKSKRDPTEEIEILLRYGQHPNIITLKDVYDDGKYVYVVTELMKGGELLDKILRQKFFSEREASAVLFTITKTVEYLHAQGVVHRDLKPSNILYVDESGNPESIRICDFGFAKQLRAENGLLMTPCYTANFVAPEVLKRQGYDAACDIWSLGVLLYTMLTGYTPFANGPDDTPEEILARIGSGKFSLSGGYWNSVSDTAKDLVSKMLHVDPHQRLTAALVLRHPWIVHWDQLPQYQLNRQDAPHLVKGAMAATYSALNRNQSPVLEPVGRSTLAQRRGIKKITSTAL

Target: Ribosomal protein S6 kinase alpha-3 (Homo sapiens, UniProt P51812)
Assay: Ratio of SL0101 IC50 to compound IC50 for His-tagged RSK2

Compound `CC(=O)CO[C@@H]1[C@@H](OCC(C)=O)[C@@H](O)[C@H](Oc2c(-c3ccc(O)cc3)oc3cc(O)cc(O)c3c2=O)O[C@H]1C` has a Ratio IC50 of 2.
